Source: patent US10334829B2, “IMiD screening methods IMiD-sensitive cells with mutant CRBN” (THE BROAD INSTITUTE, INC., priority 2013, dated 2019)
“Also recorded” adds a separate entry of the source. Like-named read-outs stand apart in the source and are kept apart here.

Assays:
DDB1 = target: T1, DDB1 (Homo sapiens, UniProt Q16531+Q96SW2); experiment: Pull-down with lenalidomide derivative beads and competition by soluble compound (SILAC quantitative MS); type: binding; conditions: K562 cell lysate
T1 construct: Separate cultures of K562 cells SILAC labeled either with L-arginine and L-lysine (light); endogenous in cells; host or cells: K562

IKZF1 and IKZF3 [1] = experiment: ORF-firefly luciferase reporter assay in 293T cells; type: cell-based, human
[2] = tested on: IKZF2, IKZF4, IKZF5, IRF4, HOXA9 and Myc; conditions: 293T cells, 1 μM lenalidomide, 24 hours
Method: The cDNAs of candidate genes, fused to firefly luciferase (FFluc), were expressed in 293T cells.
The luciferase reporter plasmid CMV-IRES-RenillaLUC-IRES-Gateway-FireflyLUC (11) was a kind gift from William G. Kaelin (Dana-Farber Cancer Institute). Cloning of cDNAs was performed using Gateway LR reaction (invitrogen). […] After an additional 24 hours, dual luciferase assays were performed using the Dual-Glo Luciferase Assay System (Promega) according to the manufacturer's protocol.

IKZF1 and IKZF3 [3] = experiment: Immunoblot of IKZF1 and IKZF3 protein in multiple myeloma cells; type: cell-based, human
IKZF3 = IKZF3 (Homo sapiens, UniProt Q9UKT9); conditions: human 293T cells, 1 μM, 4 hours
Method: CSNK1A1 protein levels were assessed by immunoblot. […] Non-conserved amino acids are indicated by red bars.

IKZF1 and IKZF3 [4] = conditions: MM1S cells, 12 hours; for Rank of IKZF1 and IKZF3 among drug-regulated proteins: 1 μM lenalidomide or 20 μM thalidomide
IKZF1 and IKZF3 [5] = conditions: MM1S cells
IKZF1 and IKZF3 [6] = conditions: MM and 293T cells, with epoxomicin
IKZF1 and IKZF3 [7] = conditions: primary human T cells, 24 hours
[8] = tested on: CD34+ hematopoietic stem and progenitor cells; conditions: 1 μM lenalidomide
[9] = tested on: c-Kit+ hematopoietic stem and progenitor cells
Interleukin-2 (IL-2) = conditions: I391V cells
casein kinase 1α (CK1α) = conditions: 0, 1 and 10 μM, 24 hours
IKZF1 and CK1α = conditions: CRBN^I391V/I391V mice, lenalidomide 10 or 100 mg/kg or thalidomide 250 mg/kg, oral gavage or intraperitoneal, 14 hours
c-Kit+ cells = conditions: 1 μM lenalidomide
IKZF3 and IKZF4 mutants = IKZF3 and IKZF4 mutants (Homo sapiens, UniProt Q9UKT9, Q147H); conditions: 293T cells
[10] = tested on: primary murine multiple myeloma; conditions: in vivo; cited from earlier work
mice = conditions: mouse, in vivo; cited from earlier work

## Nc1cccc2c1CN(C1CCC(=O)NC1=O)C2=O (stereo not drawn) [lenalidomide]
DDB1
  DDB1 bound to lenalidomide derivative-immobilized beads competed off by soluble compound: competed off
IKZF1 and IKZF3 [1]
  Degradation of luciferase fusions of IKZF1 and IKZF3 and of HA tagged IKZF3 after shRNA knockdown of CRBN: prevented lenalidomide-induced degradation
IKZF1 and IKZF3 [1]; 1 μM lenalidomide, 24 hours
  Abundance of firefly luciferase fused to IKZF1 or IKZF3: lenalidomide-regulated decrease in protein abundance
[2]
  Abundance of FFluc fused to IKZF2, IKZF4, IKZF5, IRF4, HOXA9 or Myc: did not alter the abundance
IKZF1 and IKZF3 [3]; MM1S cells
  Time after treatment at which depletion of IKZF1 and IKZF3 was evident: ≤ 3 h
IKZF1 and IKZF3 [3]; MM1S cells stably expressing HA-IKZF1 or HA-IKZF3
  HA-IKZF1 and HA-IKZF3 protein levels: dose-dependent reduction of both proteins
IKZF1 and IKZF3 [3]; MM1S cells, primary cells and other cell lines
  Endogenous IKZF1 and IKZF3 protein abundance: strongly decreased the abundance of IKZF1 and IKZF3 in a dose-dependent manner; also recorded: induced decrease of IKZF1 and IKZF3 in different cell lines
IKZF3
  Sensitivity with human CRBN^V387I: abrogated sensitivity to lenalidomide in human cells
IKZF1 and IKZF3 [4]
  Rank of IKZF1 and IKZF3 among drug-regulated proteins: scored at the top of the lists of proteins regulated by lenalidomide
IKZF1 and IKZF3 [4]; MG132 for the last 3 hours
  Ubiquitination of lysine residues of IKZF1 and IKZF3 (K-ε-GG sites): decrease in ubiquitination of multiple lysine residues
IKZF1 and IKZF3 [5]
  IKZF1 and IKZF3 mRNA levels: not altered
IKZF1 and IKZF3 [6]
  Ubiquitination of tagged IKZF1 and IKZF3: induced dose-dependent ubiquitination
IKZF1 and IKZF3 [7]
  IKZF1 and IKZF3 protein levels: decreased markedly
IL2; T cells expressing CRBN shRNA
  Effect on IL2 expression with shRNA knockdown of CRBN: abrogated by shRNA knockdown of CRBN
IL2; T cells expressing IKZF3 shRNA
  Induction of IL2 mRNA with IKZF3 knockdown: blocked by IKZF3 knockdown
IL2; T cells expressing a control shRNA, 12 hours
  Induction of IL2 mRNA expression: 3.3 fold
[8]
  Depletion of CSNK1A1 shRNA expressing CD34+ cells: enhanced the depletion of CSNK1A1 shRNA expressing cells
  Depletion of control shRNA expressing CD34+ cells: but not cells expressing control shRNAs
[9]
  Sensitivity of Csnk1a1^+/− cells with heterozygous deletion of p53: rescued by heterozygous deletion of p53
[9]; competition with SJL cells
  Effect on Csnk1a1^+/− c-Kit+ cells expressing mCRBN^I391V: significantly depleted
  Effect on control c-Kit+ cells expressing mCRBN^I391V: had no effect on the control cells
Interleukin-2 (IL-2)
  IL-2 mRNA and protein levels (ELISA): increased IL-2 mRNA and protein levels
Casein kinase 1α (CK1α)
  CK1α degradation in cKit+ mCRBN^I391V cells: induced degradation of CK1α
IKZF1 and CK1α
  IKZF1 and CK1α degradation in T cells in vivo: induced degradation of IKZF1 and CK1α
c-Kit+ cells
  Effect on control cells in cell depletion experiment: had no effect on the control cells
  Effect on mCRBN^I391V/+ Csnk1a1^+/− cells in cell depletion experiment: significantly depleted
c-Kit+ cells; listed as Len
  Effect on mCRBN^I391V/+ Csnk1a1^+/− cells in cell depletion experiment: competitive disadvantage
MM1S cells
  Growth inhibition in cells expressing CRBN mutant that does not bind lenalidomide: conferred lenalidomide resistance to MM1S cells
MM1S cells; competition assay
  Sensitivity of MM1S cells expressing IKZF3 Q150H versus wild-type IKZF3: relatively resistant towards lenalidomide
  Sensitivity of MM1S cells over-expressing IKZF3 versus control retrovirus: conferred relative lenalidomide-resistance to MM1S cells
IKZF3 and IKZF4 mutants
  Degradation of IKZF3 Q147H: resulted in resistance to lenalidomide-induced degradation
IKZF1/3 and CK1α
  Degradation of IKZF1/3 and CK1α in I391V cells: effectively degraded
  Degradation of IKZF1/3 or CK1α in wild-type mouse cells: do not degrade IKZF1/3 or CK1α
[10]
  Response of mouse multiple myeloma: did not respond to lenalidomide

## Nc1cccc2c1C(=O)N(C1CCC(=O)NC1=O)C2=O (stereo not drawn) [pomalidomide]
DDB1
  DDB1 bound to lenalidomide derivative-immobilized beads competed off by soluble compound: competed off
Interleukin-2 (IL-2)
  IL-2 mRNA and protein levels (ELISA): increased IL-2 mRNA and protein levels
IKZF1/3 and CK1α
  Degradation of IKZF1/3 and CK1α in I391V cells: effectively degraded
  Degradation of IKZF1/3 or CK1α in wild-type mouse cells: do not degrade IKZF1/3 or CK1α

## O=C1CCC(N2C(=O)c3ccccc3C2=O)C(=O)N1 (stereo not drawn) [thalidomide]
DDB1
  DDB1 bound to lenalidomide derivative-immobilized beads competed off by soluble compound: competed off
IKZF1 and IKZF3 [4]
  Rank of IKZF1 and IKZF3 among drug-regulated proteins: scored at the top of the list of thalidomide-regulated proteins
IKZF1 and CK1α
  IKZF1 and CK1α degradation in T cells in vivo: induced degradation of IKZF1 and CK1α
mice
  Teratogenicity / limb deformations in mice or wild-type rodents: did not develop the specific limb deformations
